Biological target: human topoisomerase II (Homo sapiens, UniProt P11388)
Assay: DNA Topo II inhibition (kDNA decatenation) assay
Type: biochemical
Description: The ATP-dependent decatenation of kinetoplast DNA (kDNA) obtained from Crithidia fasciculata, which consists of a network of numerous minicircles (2.3 Kb) and some maxicircles, was used to measure topoisomerase II inhibition. Reactions took place in 20 μL and comprised topoisomerase II, 200–300 ng of kDNA, and 120 mM KCl with 50 mM Tris-HCl, pH 8, 10 mM MgCl2, 0.5 mM ATP, and 0.5 mM dithiothreitol. In preliminary tests, the quantity of topoisomerase II (5 units) was changed to decatenate almost 100% of the kDNA under these assay circumstances. […] The products in the reaction mixture were separated by a 1% agarose gel after the reaction was complete and then could be seen after being stained with ethidium bromide (0.2 μg/mL). The gels were run at 100 V for about 40 min and visualised under UV transillumination.
This assay is based on the fact that human Topo II can decatenate interlinked double-stranded DNA molecules.

Chains of the proteins cited; added tags and fusions are not shown. Lines headed by an entry give the natural chain unless they say otherwise; changes in a name come on top.
UniProt P11388: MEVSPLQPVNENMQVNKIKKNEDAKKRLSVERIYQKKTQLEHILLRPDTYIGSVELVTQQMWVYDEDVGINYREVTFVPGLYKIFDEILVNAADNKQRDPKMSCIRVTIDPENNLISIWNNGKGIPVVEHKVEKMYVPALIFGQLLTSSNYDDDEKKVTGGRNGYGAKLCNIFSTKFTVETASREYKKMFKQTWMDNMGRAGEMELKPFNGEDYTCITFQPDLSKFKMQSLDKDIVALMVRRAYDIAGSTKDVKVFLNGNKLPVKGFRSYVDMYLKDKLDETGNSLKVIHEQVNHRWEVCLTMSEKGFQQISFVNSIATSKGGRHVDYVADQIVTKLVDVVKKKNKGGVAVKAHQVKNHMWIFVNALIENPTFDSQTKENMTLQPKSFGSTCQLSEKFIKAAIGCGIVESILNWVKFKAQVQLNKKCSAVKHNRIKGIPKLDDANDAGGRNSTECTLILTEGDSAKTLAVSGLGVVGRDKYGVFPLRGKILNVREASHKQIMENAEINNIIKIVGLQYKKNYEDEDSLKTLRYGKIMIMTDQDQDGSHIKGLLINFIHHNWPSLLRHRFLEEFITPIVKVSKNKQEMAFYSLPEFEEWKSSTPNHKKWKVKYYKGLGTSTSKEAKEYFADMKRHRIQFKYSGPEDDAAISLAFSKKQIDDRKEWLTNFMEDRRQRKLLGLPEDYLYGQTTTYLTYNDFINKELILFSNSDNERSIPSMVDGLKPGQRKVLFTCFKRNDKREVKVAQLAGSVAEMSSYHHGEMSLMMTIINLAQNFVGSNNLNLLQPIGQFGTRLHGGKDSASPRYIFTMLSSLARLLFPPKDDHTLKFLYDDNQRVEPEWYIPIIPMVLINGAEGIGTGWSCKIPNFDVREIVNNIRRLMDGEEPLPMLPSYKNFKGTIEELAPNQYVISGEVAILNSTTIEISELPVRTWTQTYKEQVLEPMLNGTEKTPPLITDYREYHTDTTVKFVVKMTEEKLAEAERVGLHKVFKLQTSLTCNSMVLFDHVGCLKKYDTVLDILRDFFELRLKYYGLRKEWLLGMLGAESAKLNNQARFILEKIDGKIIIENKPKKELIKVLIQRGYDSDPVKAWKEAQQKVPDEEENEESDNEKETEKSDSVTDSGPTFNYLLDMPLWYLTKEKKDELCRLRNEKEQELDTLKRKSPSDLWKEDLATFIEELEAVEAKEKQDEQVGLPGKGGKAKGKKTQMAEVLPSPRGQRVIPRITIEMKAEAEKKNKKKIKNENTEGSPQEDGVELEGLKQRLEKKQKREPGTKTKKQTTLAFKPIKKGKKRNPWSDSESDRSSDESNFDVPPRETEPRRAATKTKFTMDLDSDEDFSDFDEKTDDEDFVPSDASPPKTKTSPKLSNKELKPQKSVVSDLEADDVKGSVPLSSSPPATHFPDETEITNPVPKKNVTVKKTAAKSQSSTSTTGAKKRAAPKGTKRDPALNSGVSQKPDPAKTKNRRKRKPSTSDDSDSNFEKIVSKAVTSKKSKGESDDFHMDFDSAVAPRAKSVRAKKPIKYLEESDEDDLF

%inh TOPO II (conc 0.1 (μM)): 39%
%inh TOPO II (conc 1 (μM)): 60%
%inh TOPO II (conc 10 (μM)): 80%
%inh TOPO II (conc 100 (μM)): 92%
Structure (SMILES): COc1cc([C@@H]2c3cc4c(cc3[C@@H](O[C@@H]3O[C@@H]5CO[C@@H](C)O[C@H]5[C@H](O)[C@H]3O)[C@H]3COC(=O)[C@H]23)OCO4)cc(OC)c1O [Etoposide, reference compound]

Source: article PMC9930781, “Design, synthesis, docking, and anticancer evaluations of new thiazolo[3,2-a] pyrimidines as topoisomerase II inhibitors” (Journal of Enzyme Inhibition and Medicinal Chemistry, 2023)
